# In patent publication US6242601A, “Heterocyclic sulfamides” (Hoffman-La Roche Inc., priority 1999, dated 2001):
# The chains behind the UniProt entries cited, without tags or fusion partners. Residues count along the entry.
# UniProt P26684, 21-426: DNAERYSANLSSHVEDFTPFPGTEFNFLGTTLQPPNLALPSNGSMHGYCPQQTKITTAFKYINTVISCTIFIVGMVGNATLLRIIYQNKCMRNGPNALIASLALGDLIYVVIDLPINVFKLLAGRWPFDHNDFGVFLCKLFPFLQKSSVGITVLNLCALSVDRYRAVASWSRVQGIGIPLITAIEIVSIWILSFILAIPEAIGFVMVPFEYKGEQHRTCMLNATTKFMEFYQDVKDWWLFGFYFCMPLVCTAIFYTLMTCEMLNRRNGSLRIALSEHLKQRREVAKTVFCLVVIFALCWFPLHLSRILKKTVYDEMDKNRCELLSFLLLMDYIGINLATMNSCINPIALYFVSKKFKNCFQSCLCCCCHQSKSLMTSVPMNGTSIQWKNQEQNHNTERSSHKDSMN
# pEC50: −log10 of the molar value.
# Target: T1, isolated rat aorta rings (Rattus norvegicus, UniProt P26684)
# T1 construct: Rings with a length of 5 mm were cut out from the thorax aorta of adult Wistar-Kyoto rats; from tissue; host or cells: thoracic aorta of adult Wistar-Kyoto rats, endothelium removed
# Assay: Inhibition of endothelin-induced contractions in isolated rat aorta rings
# Set-up: species or system adult Wistar-Kyoto rats
# Details: contraction of rat aorta rings, no test compound; read-out: EC50 of endothelin in the absence of test compounds
# Method: Rings with a length of 5 mm were cut out from the thorax aorta of adult Wistar-Kyoto rats. The endothelium was removed by lightly rubbing the internal surface. Each ring was immersed at 37° C. in 10 ml of Krebs-Henseleit solution in an isolated bath while gassing with 95% O2 and 5% CO2. The isometric stretching of the rings was measured. The rings were stretched to a pre-tension of 3 g.
# The corresponding pA2 value, which is a measure of the activity of the test compound, was calculated using a computer programme according to the following equation from the "dose ratio" DR for each individual dosage-activity curve.
# pA2 =log(DR-1)-log(antagonist-concentration)
substance,measurement,value
endothelin [reference compound],pEC50,9.52
